DT40 TDP1 CPT: growth inhibition of DT40 Tdp1-/-;hTDP1 cells with camptothecin (screen for TDP1 inhibitors) | chicken DT40 Tdp1-/-;hTDP1 cells + 20 nM CPT, ATP luminescence, 48 h | Potency, µM (highest dose often 46.2 µM), most hits filed as inhibitors | 420,000 compounds, 12% hits | AID 686979; further: nearly all actives have a fitted effect of over 55% in size
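Chicken DT40 Tdp1-/- cells complemented with human TDP1, 400 cells/well, exposed to compounds plus 20 nM camptothecin for at least 48 h at 37 C; viability read as ATP content by CellTiter-Glo luminescence.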
miR-21 reporter: raises the signal of a miR-21 reporter | HeLa miR-21 FLuc reporter, luciferase, 48 h | Potency, µM (highest dose often 38.3 µM) | 340,000 tested, under 10 active | AID 2288; active = well fitted rising curve with a large enough effect; inconclusive = small, poorly fitted or top-dose-only effect; inactive = no such curve, though single readings can be large or run the other way;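 also: miR-21 action dims this reporter so a rising signal means less miR-21 action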
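Compounds were titrated across several concentrations (up to approximately 40 uM) and incubated 48 hours with HeLa miR-21-FLuc reporter cells (miR-21 target sequence downstream of FLuc, endogenous miR-21). Readout was firefly luciferase luminescence after lytic detection reagent.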
TDP1 cell noCPT: qHTS for Inhibitors of human tyrosyl-DNA phosphodiesterase 1 (TDP1): qHTS in cells in absence of CPT | 420,000 compounds, 15% hits | AID 686978, 2013 | DT40 Tdp1-/- hTDP1 cells, no CPT, ATP luminescence, 48 h | Potency, µM (titrated, usually from 46.2 µM), actives largely listed as inhibitors; further: nearly all actives have a fitted effect of over 55% in size
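Luminescent ATP content (CellTiter-Glo) served as the growth readout. Knockout chicken DT40 cells expressing human TDP1 were exposed to compounds without camptothecin for a minimum 48 hr at 37 °C.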
uPA generation: blocks generation of uPA at the cell surface; cell surface uPA generation assay, qHTS; Potency, µM (highest dose often 38.3 µM), hits mostly inhibitors; 330,000 compounds, 0.31% hits; AID 540303; active means well fitted inhibition curve with a large enough effect; inconclusive means small, poorly fitted or top-dose-only effect; inactive means no such curve, though single readings can be large or run the other way; tested in mouse RAW 264.7 cells; further: nearly all actives have a fitted effect of over 55% in size
TDP1 block: TDP1 (human) enzyme inhibition; recombinant TDP1, AlphaScreen DNA substrate cleavage; Potency, µM (highest dose often 130 µM), usual class: inhibitors; 350,000 compounds, 0.28% hits; further: nearly all actives have a fitted effect of over 40% in size
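Recombinant E. coli-expressed Tdp1 (1 nM) preincubated with compound 15 min at RT, then 5'-biotin/3'-phosphotyrosine-FITC DNA substrate (15 nM) added for 5 min. AlphaScreen beads (10 ug/ml) added, 10 min RT; tyrosine-FITC cleavage read as signal loss.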
Large screens that a line does not name were inactive. A selection: hits, their analogues and other compounds. The true share with any hit is near 16%. Unless noted, the call rests on the fitted dose curve; in most records, active means well fitted curve in the direction sought with a large enough effect; inconclusive means small, poorly fitted or top-dose-only effect, or another doubt; inactive means no such curve, though single readings can be large; an effect the other way counts as inactive or inconclusive.

Cc1cccc(-c2nc3cc(NC(=O)Cc4ccc(Cl)cc4)ccc3o2)c1	DT40 TDP1 CPT 16µM, TDP1 cell noCPT 10µM (no result: uPA generation)
Cc1ccc(SCC(=O)Nc2cccc(-c3nc4cc(Cl)ccc4o3)c2C)cc1	DT40 TDP1 CPT inconclusive, TDP1 cell noCPT inconclusive (no result: uPA generation)
Cc1ccc2oc(-c3cccc(NC(=O)Cc4ccc(Cl)cc4)c3)nc2c1	none (no result: uPA generation)
Cc1ccc(SCC(=O)Nc2ccc3oc(-c4cccc(Cl)c4)nc3c2)cc1	DT40 TDP1 CPT inconclusive, TDP1 cell noCPT 21µM (no result: uPA generation)
CCOC(=O)c1c(NC(=O)N/N=C/c2ccc(O)c(OC)c2)sc(C(C)=O)c1C	none (no result: DT40 TDP1 CPT, TDP1 cell noCPT, uPA generation)
CC(=O)COc1ccc2c(-c3cccc([N+](=O)[O-])c3)cc(=O)oc2c1	DT40 TDP1 CPT inconclusive, TDP1 cell noCPT 23µM
O=C(COc1ccc2c(-c3ccccc3)cc(=O)oc2c1)Nc1ccc(CCO)cc1	DT40 TDP1 CPT 8.2µM, TDP1 cell noCPT 7.3µM
COc1ccc([N+](=O)[O-])cc1COc1ccc2c(-c3ccccc3)cc(=O)oc2c1	DT40 TDP1 CPT inconclusive
O=C(O)COc1ccc2c(-c3ccccc3)cc(=O)oc2c1	none
Cc1cc(=O)oc2cc(OCC(=O)Nc3ccc(CN4CCOCC4)cc3)ccc12	DT40 TDP1 CPT inconclusive
O=C(COc1ccc2c(-c3ccccc3)cc(=O)oc2c1)Nc1ccc(CN2CCOCC2)cc1	DT40 TDP1 CPT 21µM, TDP1 cell noCPT inconclusive
N#Cc1cccc(C(=O)OCC(=O)NCc2ccco2)c1	none
COC(=O)[C@@H]1C[C@H]1[C@@H](NS(=O)(=O)c1ccc(-c2ccccc2)cc1)c1ccccc1	none (no result: DT40 TDP1 CPT, miR-21 reporter, TDP1 cell noCPT, uPA generation)
O=C(CSc1ccc(F)cc1)NNC(=O)c1ccccc1Br	none
c1ccc([C@H]2CN3C(=N2)Sc2ccccc23)cc1	DT40 TDP1 CPT 18µM, TDP1 cell noCPT inconclusive, uPA generation inconclusive (no result: miR-21 reporter)
CCOC(=O)Cc1csc(NC(=O)c2cccc(N3C(=O)CCC3=O)c2)n1	none
COc1ccc(-c2csc(NC(=O)c3cccc(N4C(=O)CCC4=O)c3)n2)cc1OC	DT40 TDP1 CPT 4.1µM, TDP1 cell noCPT 21µM (no result: miR-21 reporter)
CCOc1ccc(-c2csc(NC(=O)c3cccc(N4C(=O)CCC4=O)c3)n2)cc1	DT40 TDP1 CPT inconclusive
Cc1ccc(-c2csc(NC(=O)c3cccc(N4C(=O)CCC4=O)c3)n2)o1	TDP1 cell noCPT inconclusive, uPA generation 3.5µM
Cc1ccccc1-c1nc(NC(=O)CSc2ncnc3sc4c(c23)CCCC4)ns1	none (no result: uPA generation)
O=C(/C=C/c1ccco1)c1cccnc1	TDP1 cell noCPT inconclusive (no result: TDP1 block)
O=C(/C=C/c1cccc(O)c1)c1cccnc1	DT40 TDP1 CPT 8.2µM, TDP1 cell noCPT 23µM
O=C(/C=C/c1cccnc1)c1cccc(O)c1	DT40 TDP1 CPT 2.9µM, miR-21 reporter inconclusive, TDP1 cell noCPT 2.9µM (no result: TDP1 block)
Cc1ccc(NC(=O)N(CCCN2CCOCC2)Cc2cc3cc4c(cc3[nH]c2=O)OCO4)cc1	DT40 TDP1 CPT 21µM, TDP1 cell noCPT inconclusive
COc1cc2cc(CN(CCCN3CCOCC3)C(=O)Nc3ccc(F)cc3)c(=O)[nH]c2cc1OC	TDP1 cell noCPT inconclusive
O=C(Nc1ccccc1F)N(CCCN1CCOCC1)Cc1cc2cc3c(cc2[nH]c1=O)OCCO3	DT40 TDP1 CPT 16µM, TDP1 cell noCPT 16µM
O=C(Nc1ccccc1)N(CCCN1CCOCC1)Cc1cc2cc3c(cc2[nH]c1=O)OCCO3	DT40 TDP1 CPT inconclusive, TDP1 cell noCPT 10µM
Cc1ccc(NC(=O)N(Cc2ccc3c(c2)OCO3)Cc2cc3cc4c(cc3[nH]c2=O)OCCO4)cc1	DT40 TDP1 CPT 18µM, TDP1 cell noCPT inconclusive
COc1cccc2sc(N(Cc3cccnc3)C(=O)COc3ccccc3)nc12	none (no result: uPA generation)
CCc1ccc(C(=O)c2cn(CC(=O)Nc3ccc4c(c3)OCO4)c3ccc(F)cc3c2=O)cc1	TDP1 cell noCPT inconclusive (no result: uPA generation)
O=C(Nc1nnc([C@@H]2C[C@H](O)[C@@H](CO)O2)s1)Nc1ccccc1F	none (no result: miR-21 reporter, uPA generation, TDP1 block)
CC(=O)c1cccc(NC(=O)CN2CCN(Cc3ccccc3)CC2)c1	none
CCCN1CCc2[nH]c(=S)[nH]c(=O)c2C1	none
CC(C)N1CCc2[nH]c(=S)[nH]c(=O)c2C1	DT40 TDP1 CPT inconclusive, TDP1 cell noCPT 16µM
COc1cc(/C=C/C(=O)OCC(=O)N2c3ccccc3NC(=O)C2(C)C)cc(OC)c1OC	DT40 TDP1 CPT 18µM, TDP1 cell noCPT 10µM (no result: miR-21 reporter)
COc1ccc(-n2cnc(=S)[nH]c2=S)cc1	DT40 TDP1 CPT 0.58µM, TDP1 cell noCPT 0.33µM (no result: miR-21 reporter, TDP1 block)
CC(=O)Nc1ccc(-n2cc(-c3ccccc3)[nH]c2=S)cc1	TDP1 cell noCPT inconclusive
COc1ccc(-n2cc(-c3ccccc3)[nH]c2=S)cc1	DT40 TDP1 CPT 13µM, TDP1 cell noCPT 16µM
COc1ccccc1-n1cc(-c2ccccc2)[nH]c1=S	TDP1 cell noCPT inconclusive (no result: TDP1 block)
CCOc1ccc(-c2cn(-c3ccccc3OC)c(=S)[nH]2)cc1	DT40 TDP1 CPT inconclusive, TDP1 cell noCPT 18µM (no result: TDP1 block)
COc1ccc2[nH]cc(S(=O)(=O)c3ccc(C)c(C)c3)c(=O)c2c1	none (no result: uPA generation)
CCOC(=O)CC1C(=O)NCCN1S(=O)(=O)c1ccc(Cl)cc1 (centres undefined)	none
CC1(C)OC(=O)C=C(CC2NS(=O)(=O)OC3CCCCC23)O1 (centres undefined)	none (no result: TDP1 block)

Screening results from PubChem BioAssay.
